Test results reported in patent publication US20050070006A1 (priority 2001, published 2005).

Protein sequences, listed by entry. Tags and fused reporters are not part of them. Lines headed by an entry give the natural chain unless they say otherwise; changes in a name come on top.
UniProt P04483: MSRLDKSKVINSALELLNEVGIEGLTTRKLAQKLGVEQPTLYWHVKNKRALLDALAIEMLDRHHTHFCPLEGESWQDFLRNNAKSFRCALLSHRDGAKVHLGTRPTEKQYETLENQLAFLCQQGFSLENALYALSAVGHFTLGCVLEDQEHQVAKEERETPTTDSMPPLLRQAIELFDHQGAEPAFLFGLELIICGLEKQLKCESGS

Assays:
[1] = tested on: strain 3S (base substitution); conditions: short-term test, selection 6 hours
[2] = tested on: strain 3S (base substitution); test: Long-term mutation test (selection phase 16 hours), luminometric β-galactosidase reporter; conditions: selection 16 hours
[3] = tested on: strain 3S (base substitution); test: Long-term test and detection via colour change (Bromocresol Red)
[4] = tested on: strain 3Smuc (base substitution); test: Long-term test and detection via colour change (β-lactamase activity, nitrocefin)
[5] = target: Tet repressor (Escherichia coli, UniProt P04483); conditions: relative to tetracyclin; Degenkolb et al. 1991; cited from earlier work

With N-Methyl-N-nitro-N-nitrosoguanidine the “Mutation induction (factor)” value ([1]; 0.625 μg/ml) was 1.1 factor, the “Relative luminescence units (rlu)” value ([1]; 0.625 μg/ml) was 5766 rlu and the “Mutation induction (factor)” value ([1]; 1.25 μg/ml) was 1.1 factor. For the same substance, the “Relative luminescence units (rlu)” value ([1]; 1.25 μg/ml) was 5869 rlu, the “Mutation induction (factor)” value ([1]; 2.5 μg/ml) was 2.3 factor and the “Relative luminescence units (rlu)” value ([1]; 2.5 μg/ml) was 12564 rlu. For the same substance, the “Mutation induction (factor)” value ([1]; 5 μg/ml) was 10 factor, the “Relative luminescence units (rlu)” value ([1]; 5 μg/ml) was 57071 rlu and the “Mutation induction (factor)” value ([1]; 10 μg/ml) was 29 factor. The “Relative luminescence units (rlu)” value ([1]; 10 μg/ml) was 159775 rlu, the “Mutation induction (factor)” value ([2]; 0.125 μg/ml) was 2.9 factor and the “Relative luminescence units (rlu)” value ([2]; 0.125 μg/ml) was 14369 rlu. For the same substance, the “Mutation induction (factor)” value ([2]; 0.25 μg/ml) was 21.3 factor, the “Relative luminescence units (rlu)” value ([2]; 0.25 μg/ml) was 104568 rlu and the “Mutation induction (factor)” value ([2]; 0.5 μg/ml) was 37 factor. The “Relative luminescence units (rlu)” value ([2]; 0.5 μg/ml) was 181601 rlu, the “Mutation induction (factor)” value ([2]; 1 μg/ml) was 80.5 factor and the “Relative luminescence units (rlu)” value ([2]; 1 μg/ml) was 395235 rlu. The “Mutation induction (factor)” value ([2]; 2 μg/ml) was 105 factor, the “Relative luminescence units (rlu)” value ([2]; 2 μg/ml) was 516442 rlu and the “% of positive wells” value ([3]; 0.12 μg/ml) was 12.5%. For the same substance, the “Mutation induction (factor)” value ([3]; 0.12 μg/ml) was 4.5 factor, the “% of positive wells” value ([3]; 0.25 μg/ml) was 69% and the “Mutation induction (factor)” value ([3]; 0.25 μg/ml) was 24.6 factor. For the same substance, the “% of positive wells” value ([3]; 0.5 μg/ml) was 75%, the “Mutation induction (factor)” value ([3]; 0.5 μg/ml) was 26.8 factor and the “% of positive wells” value ([3]; 1.2 μg/ml) was 93%. The “Mutation induction (factor)” value ([3]; 1.2 μg/ml) was 33.2 factor, the “% of positive wells” value ([3]; 2.4 μg/ml) was 100% and the “Mutation induction (factor)” value ([3]; 2.4 μg/ml) was 35.7 factor. For the same substance, the “% of positive wells” value ([3]; 4.8 μg/ml) was 99%, the “Mutation induction (factor)” value ([3]; 4.8 μg/ml) was 35.4 factor and the “Mutation induction (factor)” value ([3]; 9.6 μg/ml) was 5.5 factor. For the same substance, the “% of positive wells” value ([3]; 9.6 μg/ml, drop due to cytotoxicity) was 15.3* %, the “Mutation induction (factor)” value ([3]; 19.2 μg/ml) was 0.75 factor and the “% of positive wells” value ([3]; 19.2 μg/ml, drop due to cytotoxicity) was 2.1* %. For the same substance, the “% of positive wells” value ([4]; 0.03 μg/ml) was 1%, the “Mutation induction (factor)” value ([4]; 0.03 μg/ml) was 1 factor and the “% of positive wells” value ([4]; 0.06 μg/ml) was 1%. The “Mutation induction (factor)” value ([4]; 0.06 μg/ml) was 1 factor, the “% of positive wells” value ([4]; 0.13 μg/ml) was 22% and the “Mutation induction (factor)” value ([4]; 0.13 μg/ml) was 22 factor. For the same substance, the “% of positive wells” value ([4]; 0.25 μg/ml) was 48%, the “Mutation induction (factor)” value ([4]; 0.25 μg/ml) was 48 factor and the “% of positive wells” value ([4]; 0.5 μg/ml) was 48%. The “Mutation induction (factor)” value ([4]; 0.5 μg/ml) was 48 factor, the “% of positive wells” value ([4]; 1 μg/ml) was 48% and the “Mutation induction (factor)” value ([4]; 1 μg/ml) was 48 factor. The “% of positive wells” value ([4]; 2 μg/ml) was 47% and the “Mutation induction (factor)” value ([4]; 2 μg/ml) was 47 factor.
For anhydrotetracyclin, the “binds to the Tet repressor more strongly (compared with tetracyclin)” value [5] is given as “approximately 35 times”.

Read-outs that look alike come from different tables or passages of the source. Marks after values point to notes of the source that are not given here.
